Only a part is listed here, and it is no random draw. Inconclusive results are not listed. Calls of active or inactive are those of the source. Calls follow the shape of the dose curve; as a rule, active = well fitted inhibition curve with a large enough effect; inconclusive = small, poorly fitted or top-dose-only effect; inactive = flat fitted curve, though single readings scatter.
% is scaled to controls: 0 for no effect and ±100 for the full control effect.

This assay can be described thus: Nrf2 qHTS screen for inhibitors: A549 ARE-Fluc Cytotoxicity Counterscreen for Hit Validation.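 Also: cells exposed to compounds for 18 to 24 hours.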 Conditions: A549 ARE-Fluc cells; at 46.1 µM (top of the series). An excerpt:
Nrf2 is a transcription factor that maintains cellular redox homoestasis and protects cells from xenobiotics. Nrf2 binds to the antioxidant response element (ARE) to induce gene expression of a broad spectrum of genes that encode for antioxidants. […] Finding a small molecule that act as an inhibitor of Nrf2 function would represent a novel therapeutic target that could lead to improvement in survival of patients undergoing chemo- and/or radio- therapy.
In collaboration with the Biswal laboratory, a cell based, luminescence assay (BugLite) was developed to detect the Nrf2 activity using the A549 ARE_Fluc cells (AID 504648). This assay was coupled with a fluorescence based (CellTiter Fluor) cytotoxicity assay to identify and exclude toxic compounds. […] The data herein is the result of the CellTiter Fluor assay where decrease in fluorescence signal = cytotoxicity. […]
Five uL of cell suspension was dispensed into 1536-well white TC-treated plate using the Kalypsys dispenser to achieve a density of 5000 cells/well in all columns except column 1. […] The fluorescence signal was read using the PerkinElmer ViewLux plate reader (Ex = 405 nm /Em = 525 nm) for a 3 second exposure. […] A second ViewLux read (40 sec exposure) was performed to detect the luminescence signal. Cytotoxicity was assessed through the first fluorescent read while biochemical activity against Nrf2 was measured in the luminescent read. […]
(In general: Quantitative high-throughput screening tests each substance at several concentrations.)
For the compound `CC1=CC2OC3CC4OC(=O)C=CC=CC(=O)OCCC(C)C(O)C(=O)OCC2(CC1O)C4(C)C31CO1` (stereo unspecified), the activity change, negative = cytotoxicity was inactive: 63.1%.

For the origin of these results see PubChem BioAssay AID720523 (National Center for Advancing Translational Sciences (NCATS), 2013).
